Experimental data from patent US11166931B2, “Induction of arteriogenesis with an NO (nitric oxide) donor” (G. Pohl-Boskamp GmbH & Co. KG, priority 2012, dated 2021).

Test system: Sprague-Dawley rats
Test: Collateral diameters in the ROI, coronary microvascular imaging with micro-CT
Settings: rat, in vivo

For `O=[N+]([O-])OCC(CO[N+](=O)[O-])O[N+](=O)[O-]` [NTG, nitroglycerin], the “collateral diameters / collateral growth compared to controls (in words)” value was “significantly enlarged collateral arteries”.
